Results taken from US11759451B2, “Therapeutic potential of glycopyrrolate and mexiletine for nervous system injury” (City University of Hong Kong, priority 2020, dated 2023).

Test system: optic nerve crush injury
Conditions: intravitreal 1 μg weekly plus i.p. 2 mg/kg daily for 7 days

C[N+]1(C)CCC(OC(=O)C(O)(c2ccccc2)C2CCCC2)C1 (centres unmarked) [glycopyrrolate]
increase in the number of CTB-labelled regenerating axons at 2 mm distal to the lesion site (4 weeks after optic nerve crush, vs vehicle controls): more than 70 fold | increase in the number of CTB-labelled regenerating axons extending 1.0 mm from the site of injury (14 days after optic nerve crush, vs saline vehicle): more than 17 fold
